Among the data in PubChem BioAssay AID687014 (The Scripps Research Institute Molecular Screening Center, 2013) are activation values, retold here.

The list shows a part of the results, in another mix than the full data. Some of these compounds have results that are not shown, active ones among them. Active and inactive are the calls of the source.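 How the source made its calls: active means activation above a cutoff set at the mean of all screened compounds plus 3 SD (cut at about 10% in these data); inactive means the rest.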

The experiment relates to Nuclear hormone receptor DAF-12 (Heterodera glycines), GAL4 fusion. Nature of the experiment: H. glycines DAF-12 receptor agonists, primary screen, cell-based, luminescence, HEK293, GAL4 fusion, UAS-luciferase (AID 687014).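 Further: 0% = DMSO wells and 100% = sodium butyrate wells.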 As to conditions: HEK293 GAL4-hgDAF12 UAS-luciferase reporter, agonist luminescence; at 6.8 µM; active compounds read high; normalized to butyrate control. For orientation: A reporter such as luciferase makes a cellular process visible.
On to `C=CCN1CCN(CCOC(=O)C(O)(c2ccccc2)c2ccccc2)CC1`, for which the activation is inactive: -0.92%.

As to `O=C(NCC1(N2CCCCC2)CCCCC1)c1cc(F)c(F)cc1Cl`, the activation is inactive: 0.64%.

In the case of `CCN1CCCC(OC(=O)C2(O)c3ccccc3C=Cc3ccccc32)C1` (stereo unspecified), the activation was inactive: 0.03%.

Take `Cc1cc(C(=O)NCC2(N3CCCCC3)CCCCC2)ccc1[N+](=O)[O-]`: the activation was inactive: 4.42%.

For the compound `O=C(NCC1(N2CCCCC2)CCCCC1)c1cccc(Br)c1`, the activation is inactive: 2.77%.

Take `COc1ccc(C(=O)NCC2(N(C)C)CCCCC2)cc1`: the activation was inactive: 1.33%.

As for `Cc1ccccc1C(=O)NCC1(N2CCCCC2)CCCCC1`, the activation is inactive: 2.03%.

`CN(C)c1ccc(C(=O)NCC2(N(C)C)CCCCC2)cc1`: the activation is inactive: 1.07%.

As for `CN(C)C1CCCC1OC(=O)C(O)(c1ccccc1)c1ccccc1` (stereo unspecified), the activation was inactive: 1.47%.

For the compound `CC(C)N1C(=O)CC2(CCN(CCOC(=O)C(O)(c3ccccc3)c3ccccc3)CC2)C1=O`, the activation is inactive: -2.31%.

Regarding `CCN(CC)CC(C)C(C)OC(=O)C(O)(c1ccccc1)c1ccccc1` (stereo unspecified), the activation was inactive: -3.36%.

As to `COc1cc(SC)ccc1C(=O)NCC1(N(C)C)CCCCC1`, the activation is inactive: -0.1%.

For `Cc1ccc(C(=O)NCC2(N3CCCCC3)CCCCC2)cc1`, the activation was inactive: -0.25%.

For the compound `O=C(NCC1(N2CCCCC2)CCCCC1)c1cc([N+](=O)[O-])ccc1Cl`, the activation was inactive: -0.19%.

With `CN1[C@@H]2CC[C@H]1CC(OC(=O)C(O)(c1ccccc1)c1ccccc1)C2` (stereo partly specified), the activation is inactive: 1%.

In the case of `COc1ccc(Br)c(C(=O)NCC2(N3CCCCC3)CCCCC2)c1`, the activation was inactive: -0.91%.

As for `C=C(C)C#CC(O)(C(=O)OC1CCN(C)CC1)c1ccccc1` (stereo unspecified), the activation was inactive: -2.89%.

Turning to `CN(C)c1cccc(C(=O)NCC2(N(C)C)CCCCC2)c1`, the activation is inactive: -1.56%.

Regarding `CC(C)Oc1ccc(C(=O)NCC2(N(C)C)CCCCC2)cc1`, the activation is inactive: -0.1%.

As for `O=C(OCCN1CCCC1)C(O)(c1ccccc1)c1ccccc1`, the activation is inactive: 1.6%.

For the compound `O=C(OC1CN2CCC1CC2)C(CO)(c1ccccc1)c1ccccc1` (stereo unspecified), the activation is inactive: 0.09%.

Take `COc1cccc(C(=O)NCC2(N3CCCCC3)CCCCC2)c1`: the activation is inactive: -0.12%.

As for `COc1ccc(Cl)cc1C(=O)NCC1(N(C)C)CCCCC1`, the activation is inactive: -0.43%.

For `O=C(NCC1(N2CCCCC2)CCCCC1)c1cccc(Cl)c1`, the activation is inactive: 2.3%.

Regarding `CN(C)C1(CNC(=O)c2ccc(Br)cc2)CCCCC1`, the activation is inactive: -1.36%.

As for `COc1cc(C(=O)NCC2(N(C)C)CCCCC2)c([N+](=O)[O-])cc1OC`, the activation is inactive: 0.77%.
